{"source": "patent US20080076183A1", "about": "“Polysaccharide-peptide conjugates for use as thrombin substrates” (Dade Behring Marburg GmbH, priority 2006, published 2008)", "target": "thrombin (Homo sapiens, UniProt P00734)", "assay": "Kinetic properties of thrombin substrates (Km, Vmax, Kcat, Kcat/Km)", "settings": "for Km: Michaelis constant, substrate affinity to thrombin; for Vmax: maximum reaction rate; for Kcat: turnover number"}
{"substance": "Dextran-D-CHG-Ala-Arg-pNA", "values": [{"measurement": "Km", "value": 600, "unit": "µM"}, {"measurement": "Vmax", "value": 57, "unit": "U"}, {"measurement": "Kcat", "value": 167, "unit": "s⁻¹"}]}
{"substance": "Dextran-D-CHG-Gly-Arg-pNA", "values": [{"measurement": "Km", "value": 600, "unit": "µM"}, {"measurement": "Vmax", "value": 60, "unit": "U"}, {"measurement": "Kcat", "value": 176, "unit": "s⁻¹"}]}
{"substance": "Dextran-β-Ala-Gly-Arg-pNA", "values": [{"measurement": "Km", "value": "1000 to 1400", "unit": "µM"}, {"measurement": "Vmax", "value": 19.5, "unit": "U"}, {"measurement": "Kcat", "value": 21, "unit": "s⁻¹"}]}
